Results taken from PubChem BioAssay AID1671188 (National Center for Advancing Translational Sciences (NCATS), 2021).
The entries are a selection whose mix differs from that of the whole data set. Results filed as inconclusive are left out. Activity calls are given as the source filed them. The call rests on the fitted dose curve; in most records, active means well fitted inhibition curve with a large enough effect; inconclusive means small, poorly fitted or top-dose-only effect; inactive means flat fitted curve, though single readings scatter.

The chains behind the UniProt entries cited, without tags or fusion partners.
UniProt Q8TD30, whole entry: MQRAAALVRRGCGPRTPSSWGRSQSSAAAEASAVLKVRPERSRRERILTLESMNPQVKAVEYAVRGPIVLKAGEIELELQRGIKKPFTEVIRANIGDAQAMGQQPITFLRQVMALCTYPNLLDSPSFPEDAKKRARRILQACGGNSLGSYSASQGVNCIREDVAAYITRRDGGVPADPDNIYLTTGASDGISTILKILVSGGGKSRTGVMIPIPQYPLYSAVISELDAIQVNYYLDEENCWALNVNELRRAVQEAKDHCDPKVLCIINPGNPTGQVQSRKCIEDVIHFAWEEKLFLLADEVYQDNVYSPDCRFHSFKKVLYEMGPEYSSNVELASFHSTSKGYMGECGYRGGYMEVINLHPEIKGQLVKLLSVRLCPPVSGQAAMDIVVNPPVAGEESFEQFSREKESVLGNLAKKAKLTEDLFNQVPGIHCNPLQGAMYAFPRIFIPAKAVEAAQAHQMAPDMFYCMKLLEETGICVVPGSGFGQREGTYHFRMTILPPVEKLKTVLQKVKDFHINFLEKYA

These compounds were tested against Alanine aminotransferase 2 (Homo sapiens) (UniProt Q8TD30) (assay: Primary qHTS assay for inhibitors of Glutamate pyruvate transaminase 2 (GPT2)). Conditions: Recombinant GPT2, coupled pyruvate oxidase/HRP Amplex Red fluorescence; activity change, negative = inhibition: at 57.7 µM (top of the series) unless noted.
Method: Assay Provider: Zhenghe John Wang Ph.D.
Case Western Reserve University, Cleveland OH
Glutamate pyruvate transaminase 2 (GPT2) catalyzes the reversible transamination of glutamate and pyruvate to provide a-ketoglutarate and alanine. We have optimized an assay for GPT2 enzymatic activity that couples pyruvate formation to detection of fluorescence using an established pyruvate oxidase/horseradish peroxidase / Amplex Red system.
Screening conditions were 250uM a-KG, 2mM L-alanine, and 10ng/uL GPT2 in […] of solution; 10uL of Amplex reaction mix (outlined below) were added so that final concentrations of Amplex reagents in 50uL were 0.2mM ThPP, 0.2U/mL PO and HRP, and 50uM Amplex.
NOTE: The volume of GPT2 in the system depends on the activity of it. The activity is different every batch. You need to test the activity before the assay. For full plate assay with automation, plate 20uL of GPT2 buffer to pin into, then add 10uL of GPT2 dilution followed immediately by 10uL of substrate dilution. 2 Columns of the plate were devoted to GPT2 buffer ([…] PH7.5, 0.0001% Tween) + 50uM AOA (known GPT2 inhibitor) to serve as a positive control. Complete the assay as normal. Amplex-red buffer: […] PH7.5, 1 mM EDTA, 1 mM MgCl2.
1. Combine a-KG and L-alanine at desired concentrations and incubate for at least 10 minutes at 37C. Stocks of L-alanine and a-KG are diluted in distilled water. However, the stocks were diluted in GPT2 buffer for the assay.
2. Prepare GPT2 dilution at the desired concentration in GPT2 buffer.
3. Plate 40uL of GPT2 dilution with 40uL of substrate dilution and let incubate for 30 minutes at room temperature.
4. Add 20uL of Amplex reaction mix prepared as follows: 1.5uL 200U/mL Horseradish Peroxidase, 200mM Thiamine Pyrophosphate, 200U/mL Pyruvate Oxidase; 7.5uL 10mM Amplex Red; 288uL Amplex Buffer.
5. Incubate for 30 minutes at room temperature in the dark, then image using AM_Amplex_Fluorescence on plate reader nearest the window.
Further: nearly all actives have a fitted effect of over 60% in size.
On the % scale 0 is the no-effect control and ±100 the full control effect.

| Structure (SMILES) | activity change, negative = inhibition | outcome |
| --- | --- | --- |
| CN(CCCl)CCCl | inactive: -17.6% | inactive [at 57.7 µM] |
| CCC(=O)N(c1ccccc1)C1(COC)CCN(CCn2nnn(CC)c2=O)CC1 | – | inactive |
